Reference: patent US9451765B2, “Biological decontamination gel and method for decontaminating surfaces by using this gel” (dated 2016)

Tests used:
[1] = tested on: spores of Bacillus thuringiensis; conditions: nitric acid (0.5M HNO3 tested in Example 1)
[2] = tested on: spores of Bacillus thuringiensis; conditions: 0.5M, 1M, 5M; contact times 1 to 5 hours; FIG. 5

Molecule	destruction, inactivation of spores [1]	rates for inhibiting spores on increase in the concentration of biocidal agent [2]
O=[N+]([O-])O	ensured the destruction, the inactivation of spores	
sodium hydroxide		considerably increasing the rates for inhibiting biological species
potassium hydroxide		considerably increasing the rates for inhibiting biological species
